Here are results for 19 compounds from ChEMBL document CHEMBL6121003, “Design, synthesis, and pharmacological evaluation of triazine-based PI3K/mTOR inhibitors for the potential treatment of non-small cell lung cancer” (Eur J Med Chem, 2025).

By UniProt entry, the sequences of proteins in these tests, tags left out.
UniProt P42336, whole entry: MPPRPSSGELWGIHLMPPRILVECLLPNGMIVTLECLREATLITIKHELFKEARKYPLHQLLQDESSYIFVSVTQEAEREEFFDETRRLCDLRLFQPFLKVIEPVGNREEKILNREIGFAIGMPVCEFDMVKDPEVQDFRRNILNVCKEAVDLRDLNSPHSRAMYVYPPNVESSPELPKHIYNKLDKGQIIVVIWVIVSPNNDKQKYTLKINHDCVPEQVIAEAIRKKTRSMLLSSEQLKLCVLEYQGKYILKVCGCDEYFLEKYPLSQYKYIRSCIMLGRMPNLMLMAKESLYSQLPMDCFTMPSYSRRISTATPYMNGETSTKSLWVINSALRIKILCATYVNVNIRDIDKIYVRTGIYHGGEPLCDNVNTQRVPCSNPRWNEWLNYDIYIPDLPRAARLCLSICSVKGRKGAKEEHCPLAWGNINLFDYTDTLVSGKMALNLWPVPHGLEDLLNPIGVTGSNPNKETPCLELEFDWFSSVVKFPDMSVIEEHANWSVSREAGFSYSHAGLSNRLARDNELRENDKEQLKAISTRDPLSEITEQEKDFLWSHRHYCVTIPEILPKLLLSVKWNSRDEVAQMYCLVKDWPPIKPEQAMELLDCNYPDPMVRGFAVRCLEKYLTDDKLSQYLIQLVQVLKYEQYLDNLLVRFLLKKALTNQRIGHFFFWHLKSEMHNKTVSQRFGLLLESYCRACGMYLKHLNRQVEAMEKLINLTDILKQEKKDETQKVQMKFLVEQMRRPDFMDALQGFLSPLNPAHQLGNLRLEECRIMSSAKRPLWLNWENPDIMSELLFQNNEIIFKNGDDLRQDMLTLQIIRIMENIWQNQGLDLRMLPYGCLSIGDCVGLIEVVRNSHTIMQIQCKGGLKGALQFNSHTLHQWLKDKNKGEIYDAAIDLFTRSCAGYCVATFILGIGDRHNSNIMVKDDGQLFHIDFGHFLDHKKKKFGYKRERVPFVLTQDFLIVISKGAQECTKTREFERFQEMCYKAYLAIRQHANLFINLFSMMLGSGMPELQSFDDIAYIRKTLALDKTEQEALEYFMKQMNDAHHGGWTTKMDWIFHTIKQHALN

Active and inactive are the calls of the source. No cut-off for these calls is given here.

One assay deals with Phosphatidylinositol 4,5-bisphosphate 3-kinase catalytic subunit alpha isoform (Homo sapiens, UniProt P42336). Particulars: dose 1.5 µM, time 1.0 hrs.
For the compound `N#Cc1ccc(NC(=S)Nc2ccc(-c3nc(N4CCOCC4)nc(N4CCOCC4)n3)cc2)cc1`, the inhibition is less than 70%. The compound `Fc1ccc(NC(=S)Nc2ccc(-c3nc(N4CCOCC4)nc(N4CCOCC4)n3)cc2)c(F)c1` gave an inhibition of less than 70%. As to `S=C(Nc1ccc(-c2nc(N3CCOCC3)nc(N3CCOCC3)n2)cc1)Nc1cccnc1`, the inhibition was more than 70%. In the case of `CC(C)(C)c1ccc(NC(=S)Nc2ccc(-c3nc(N4CCOCC4)nc(N4CCOCC4)n3)cc2)cc1`, the inhibition was less than 70%. Compound `Fc1ccc(NC(=S)Nc2ccc(-c3nc(N4CCOCC4)nc(N4CCOCC4)n3)cc2)c(Cl)c1` returned an inhibition of less than 70%. The compound `Cc1cccc(NC(=S)Nc2ccc(-c3nc(N4CCOCC4)nc(N4CCOCC4)n3)cc2)c1` showed an inhibition of less than 70%. The compound `Fc1ccc(NC(=S)Nc2ccc(-c3nc(N4CCOCC4)nc(N4CCOCC4)n3)cc2)cc1F` came in with an inhibition of less than 70%.

As for `S=C(Nc1ccccc1)Nc1ccc(-c2nc(N3CCOCC3)nc(N3CCOCC3)n2)cc1`, the inhibition was less than 70%. Compound `S=C(Nc1ccc(-c2nc(N3CCOCC3)nc(N3CCOCC3)n2)cc1)Nc1ccc(Cl)c(Cl)c1` had an inhibition of less than 70%. The compound `S=C(NCc1ccccc1)Nc1ccc(-c2nc(N3CCOCC3)nc(N3CCOCC3)n2)cc1` came in with an inhibition of less than 70%.

As to `Cc1ccc(NC(=S)Nc2ccc(-c3nc(N4CCOCC4)nc(N4CCOCC4)n3)cc2)cc1`, the inhibition was less than 70%. Same read-out and setting: under `CC(=O)c1ccc(NC(=S)Nc2ccc(-c3nc(N4CCOCC4)nc(N4CCOCC4)n3)cc2)cc1` stands less than 70%. The same measure, in the same setting: under `S=C(Nc1ccc(Cl)cc1)Nc1ccc(-c2nc(N3CCOCC3)nc(N3CCOCC3)n2)cc1` stands less than 70%; under `FC(F)(F)c1ccc(NC(=S)Nc2ccc(-c3nc(N4CCOCC4)nc(N4CCOCC4)n3)cc2)cc1`, less than 70%; under `COc1ccc(NC(=S)Nc2ccc(-c3nc(N4CCOCC4)nc(N4CCOCC4)n3)cc2)cc1`, less than 70%.

The compound `N#Cc1cccc(NC(=S)Nc2ccc(-c3nc(N4CCOCC4)nc(N4CCOCC4)n3)cc2)c1` gave an inhibition of less than 70%. On to `COc1ccc(NC(=S)Nc2ccc(-c3nc(N4CCOCC4)nc(N4CCOCC4)n3)cc2)cc1OC`, for which the inhibition was less than 70%.

As to `Fc1ccc(NC(=S)Nc2ccc(-c3nc(N4CCOCC4)nc(N4CCOCC4)n3)cc2)cc1`, the inhibition is less than 70%.

The subject of the next assay is HCC827. As to the kind of experiment: Antitumor activity against human HCC827 cells xenografted in nude male Balb/c mouse model assessed as tumor growth inhibition at 20 mg/kg, po administered daily for 2 weeks.
Details: not given
The assay is classed as functional, organism-based.
Consider `CN(C)C1CCN(C(=O)c2ccc(NC(=O)Nc3ccc(-c4nc(N5CCOCC5)nc(N5CCOCC5)n4)cc3)cc2)CC1` [GEDATOLISIB], for which the result was inactive.

One may read the inhibition as the share of the control response that was lost under treatment.
